Data as given in patent US20250073251A1, “COMPOSITIONS AND METHODS AND USES THEREOF” (Journey Medical Corporation, priority 2019, published 2025).
Several values for one entry are separate records, joined by “and”; a condition that tells them apart may be missing. Equal values may be shown once.

System: moderate-to-severe acne vulgaris
Conditions: human, in vivo

COc1ccc(-c2ccc3cc(C(=O)O)ccc3c2)cc1C12CC3CC(CC(C3)C1)C2 [0.3% adapalene foam]
Diastolic Blood Pressure, Mean: 72.7 mmHg
Systolic Blood Pressure, Mean: 115.4 mmHg and 115.9 mmHg and 116.3 mmHg
Systolic Blood Pressure, Median: 115.0 mmHg and 116.0 mmHg
